The values below are quoted from earlier work in paper PMC12640828, “A novel bioactive peptide-peptoid hybrid of alpha-calcitonin gene-related peptide protects against pressure-overload induced heart failure” (Frontiers in Pharmacology, 2025).

The conditions of this series: cited from earlier work. An excerpt: Alpha-calcitonin gene-related peptide (α-CGRP) is a 37-amino acid regulatory neuropeptide and a potent vasodilator having positive chronotropic and inotropic effects ([Brain et al., 1985]; [Russell et al., 2014]; [Kumar et al., 2019a]). Pharmacological studies established a cardioprotective role for α-CGRP in normal cardiovascular function and in a number of heart and vascular diseases, including heart failure (HF) ([Russell et al., 2014]; [Kumar et al., 2019a]).

As to “Alpha-calcitonin gene-related peptide [α-CGRP]”, the “Rapid degradation time in circulation” value (in circulation, ref MaassenVanDenBrink et al., 2016) is approximately 5 min. Moreover, under “native peptide, rapid biodegradation, no reference given”, the Half-life entry is given as “approximately 5 min”.
